From paper PMC10404681, “Intrinsic catalytic properties of histone H3 lysine-9 methyltransferases preserve monomethylation levels under low S-adenosylmethionine” (The Journal of Biological Chemistry, 2023)
Values joined by “and” are separate entries in the source; they are usually repeats but may differ in a detail not shown here. Identical values can stand only once.

Chains of the proteins cited; added tags and fusions are not shown. Residues count along the entry.
UniProt Q9H5I1, 162-410: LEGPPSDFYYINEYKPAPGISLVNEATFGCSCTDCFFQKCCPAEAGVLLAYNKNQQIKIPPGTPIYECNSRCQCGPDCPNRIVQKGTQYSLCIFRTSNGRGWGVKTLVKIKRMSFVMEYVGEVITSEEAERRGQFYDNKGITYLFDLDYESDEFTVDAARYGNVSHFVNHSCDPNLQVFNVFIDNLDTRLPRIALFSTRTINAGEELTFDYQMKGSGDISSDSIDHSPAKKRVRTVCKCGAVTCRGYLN

Columns and labels:
[1] = target: T1, EHMT2 catalytic domain (Homo sapiens, UniProt Q96KQ7); experiment: Radiometric EZ-tip methyltransferase assay, steady-state kinetics, EHMT2; format: biochemical, H. sapiens; settings: EHMT2 25 nM, pH 7.9, 30 °C, n = 3, SD; for Km: H3(1–17)K9 peptide varied 0.05–50 μM; for Km / kcat (peptide varied) / kcat/KM (peptide): SAM fixed 50 μM; for Km / kcat (SAM varied): 20 min; for kcat (SAM varied): peptide fixed 50 μM (saturating), SAM varied 0.1–100 μM; for kcat (peptide varied) / kcat/KM (peptide): peptide varied 0.05–50 μM
T1 construct: EHMT2 = 913 to 1193; made in house; host or cells: Rosetta E. coli (plasmid from the laboratory of Peter W. Lewis)
T1 sequence (Q96KQ7 913-1193): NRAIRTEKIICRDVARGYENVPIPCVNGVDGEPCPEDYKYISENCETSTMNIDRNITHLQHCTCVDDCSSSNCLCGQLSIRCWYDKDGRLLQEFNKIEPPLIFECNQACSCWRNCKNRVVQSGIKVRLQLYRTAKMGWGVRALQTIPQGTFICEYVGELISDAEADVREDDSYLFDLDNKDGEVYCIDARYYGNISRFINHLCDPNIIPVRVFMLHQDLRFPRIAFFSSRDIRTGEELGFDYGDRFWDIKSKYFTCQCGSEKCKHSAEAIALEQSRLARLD
Source text: (§1) The H. sapiens EHMT1 catalytic subunit (Addgene plasmid #51314) and H. sapiens SUV39H2 catalytic subunit (Addgene plasmid #25115) E. coli expression plasmids used in this study were acquired from Addgene, made possible through a gift by Cheryl Arrowsmith. The H. sapiens EHMT2 catalytic subunit E. coli expression plasmid used in this study was provided by the laboratory of Peter W. Lewis at the University of Wisconsin-Madison. All remaining histone methyltransferase expression plasmids were generated for this study and will be made freely available from Addgene. HMT amino acids included in expression plasmids are as follows: EHMT1 = 982 to 1266; EHMT2 = 913 to 1193; SUV39H1 = full length with N-terminal maltose-binding protein; SUV39H2 = 162 to 410.
(§2) Michaelis-Menten saturation curves were generated under steady-state conditions with the non-titrated component concentration being present at ≥5× KM specific to each enzyme. 1 × 10^5 CPM values were provided by [methyl-^3H] SAM in each reaction. Reaction times and enzyme concentrations were optimized for each HMT to ensure substrate turnover remained below 20%. 50 μM H3 peptide was combined with varying SAM concentrations up to 100 μM and either EHMT1 (25 nM), EHMT2 (25 nM), SUV39H1 (100 nM), or SUV39H2 (25 nM) in histone methyltransferase (HMT) activity buffer (50 mM HEPES pH 7.9, 0.5 mM DTT, 0.1 mM AEBSF, 2 mM MgCl2, 0.01% v/v Triton X-100) with a final volume of 20 μl. Enzyme concentrations are calculated for the monomeric form. Reactions were incubated at 30 °C for 20 min before quenching with TFA for a final concentration of 2% v/v TFA. Then, the reactions were cleaned using StageTips (i.e., two Attract SPE disks (Affinisep) in a pipette tip) with 200 μl acidified water (0.5% v/v formic acid) and eluted with 100 μl elution buffer (80% v/v acetonitrile, 0.5% v/v formic acid). The eluates were added to 2 ml of Ultima Gold LSC Cocktail (Sigma-Aldrich) and counted on a scintillation counter (PerkinElmer). All CPM values were corrected for decreased StageTip capacity when peptide concentrations exceeded 10 μM.
(§3) CPM values were converted to rates of product formation (μM/min) and used to generate Michaelis-Menten kinetic constants via GraphPad Prism v9.5.0 via the following equation: Y = Et∗kcat∗X/(KM + X). Variable definitions are as follows: Y = rate of product formation/enzyme velocity; X = substrate concentration; Et = concentration of enzyme in reaction.

[2] = target: T2, SUV39H1 (Homo sapiens, UniProt O43463); experiment: Radiometric EZ-tip methyltransferase assay, steady-state kinetics, SUV39H1; format: biochemical; settings: SUV39H1 100 nM, pH 7.9, 30 °C, n = 3, SD; for Km: H3(1–17)K9 peptide varied 0.05–50 μM; for Km / kcat (peptide varied) / kcat/KM (peptide): SAM fixed 50 μM; for Km / kcat (SAM varied): 20 min; for kcat (SAM varied): peptide fixed 50 μM (saturating), SAM varied 0.1–100 μM; for kcat (peptide varied) / kcat/KM (peptide): peptide varied 0.05–50 μM
T2 construct: made in house; host or cells: Rosetta E. coli (plasmid generated for this study)
T2 sequence (O43463 1-412): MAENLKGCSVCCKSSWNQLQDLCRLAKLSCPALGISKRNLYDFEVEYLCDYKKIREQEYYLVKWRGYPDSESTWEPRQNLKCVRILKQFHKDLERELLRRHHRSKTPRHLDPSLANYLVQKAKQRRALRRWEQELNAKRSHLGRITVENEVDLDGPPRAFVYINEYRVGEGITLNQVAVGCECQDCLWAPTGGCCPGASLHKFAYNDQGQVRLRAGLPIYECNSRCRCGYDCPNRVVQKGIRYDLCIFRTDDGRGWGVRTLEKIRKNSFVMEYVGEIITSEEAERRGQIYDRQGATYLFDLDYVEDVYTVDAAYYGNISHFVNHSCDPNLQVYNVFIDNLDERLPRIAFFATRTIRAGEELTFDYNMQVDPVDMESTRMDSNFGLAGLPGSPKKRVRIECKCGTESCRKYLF
Source text: as §1, §2, §3

[3] = target: T3, EHMT1 catalytic domain (Homo sapiens, UniProt Q9H9B1); experiment: Radiometric EZ-tip methyltransferase assay, steady-state kinetics, EHMT1; format: biochemical, H. sapiens; settings: EHMT1 25 nM, pH 7.9, 30 °C, n = 3, SD; for Km: H3(1–17)K9 peptide varied 0.05–50 μM; for Km / kcat (peptide varied) / kcat/KM (peptide): SAM fixed 50 μM; for Km / kcat (SAM varied): 20 min; for kcat (SAM varied): peptide fixed 50 μM (saturating), SAM varied 0.1–100 μM; for kcat (peptide varied) / kcat/KM (peptide): peptide varied 0.05–50 μM
T3 construct: EHMT1 = 982 to 1266; host or cells: Rosetta E. coli
T3 sequence (Q9H9B1 982-1266): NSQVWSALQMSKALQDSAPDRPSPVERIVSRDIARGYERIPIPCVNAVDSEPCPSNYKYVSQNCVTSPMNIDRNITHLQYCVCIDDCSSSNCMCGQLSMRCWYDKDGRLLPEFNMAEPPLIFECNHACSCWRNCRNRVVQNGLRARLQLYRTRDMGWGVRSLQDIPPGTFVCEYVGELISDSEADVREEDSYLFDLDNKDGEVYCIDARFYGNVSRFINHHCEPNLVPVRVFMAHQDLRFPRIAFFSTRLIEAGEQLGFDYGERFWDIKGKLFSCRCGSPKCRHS
Source text: as §1, §2, §3

[4] = target: T4, SUV39H2 catalytic domain (Homo sapiens, UniProt Q9H5I1); experiment: Radiometric EZ-tip methyltransferase assay, steady-state kinetics, SUV39H2; format: biochemical, H. sapiens; settings: SUV39H2 25 nM, pH 7.9, 30 °C, n = 3, SD; for Km: H3(1–17)K9 peptide varied 0.05–50 μM; for Km / kcat (peptide varied) / kcat/KM (peptide): SAM fixed 50 μM; for Km / kcat (SAM varied): 20 min; for kcat (SAM varied): peptide fixed 50 μM (saturating), SAM varied 0.1–100 μM; for kcat (peptide varied) / kcat/KM (peptide): peptide varied 0.05–50 μM
T4 construct: SUV39H2 = 162 to 410; host or cells: Rosetta E. coli
Source text: as §1, §2, §3

Substance	Km [1] [µM]	kcat (SAM varied) [1]	kcat (peptide varied) [1] [s⁻¹]	kcat/KM (peptide) [1] [M⁻¹ s⁻¹]	Km [2] [µM]	kcat (SAM varied) [2]	kcat (peptide varied) [2] [s⁻¹]	kcat/KM (peptide) [2] [M⁻¹ s⁻¹]	Km [3] [µM]	kcat (SAM varied) [3]	kcat (peptide varied) [3] [s⁻¹]	kcat/KM (peptide) [3] [M⁻¹ s⁻¹]	Km [4] [µM]	kcat (SAM varied) [4] [s⁻¹]	kcat (peptide varied) [4] [s⁻¹]	kcat/KM (peptide) [4] [M⁻¹ s⁻¹]
H3K9un: H3(1–17) K9 unmodified peptide substrate	3.62 ± 0.87	0.127 s⁻¹ and 0.127 ± 0.00183 s⁻¹	0.156 ± 0.00983	44300 ± 7670	0.6 ± 0.08	0.00717 ± 0.00067 s⁻¹	0.0102 ± 0.00083	17200 ± 3000	1.68 ± 0.13	0.212 s⁻¹ and 0.2115 ± 0.0108 s⁻¹	0.1852 ± 0.00533	111000 ± 12000	1.62 ± 0.09	0.0668 ± 0.00567	0.0877 ± 0.0025	54300 ± 3670
H3K9me1: H3(1–17) K9 monomethylated peptide substrate	1.68 ± 0.17	0.0358 s⁻¹ and 0.0358 ± 0.00383 s⁻¹	0.0567 ± 0.00067	34000 ± 3000	1.03 ± 0.14	0.005 s⁻¹ and 0.005 ± 0.00083 s⁻¹	0.0075 ± 0.001	7500 ± 330	3.4 ± 0.72	0.0335 s⁻¹ and 0.0335 ± 0.0025 s⁻¹	0.036 ± 0.00267	10800 ± 2170	4.26 ± 0.23	0.059 ± 0.00383	0.109 ± 0.0013	25500 ± 1500
H3K9me2: H3(1–17) K9 dimethylated peptide substrate	6.51 ± 1.6	0.0175 ± 0.0012 s⁻¹	0.008 ± 0.0012	1300 ± 170	10.4 ± 2.78	0.0005 s⁻¹ and 0.0005 ± 0.00017 s⁻¹	0.0015 ± 0.00017	170 ± 50	64.6	0.0112 ± 0.00033 s⁻¹	0.021 ± 0.00467	330 ± 67	8.01 ± 2.95	0.0703 ± 0.00583	0.0563 ± 0.0187	7170 ± 1830
